Publication PMC9907071 (Proceedings of the National Academy of Sciences of the …, 2022)

Assays:
AbDHODH = biological target: T1, AbDHODH (Acinetobacter baumannii, UniProt B7GZW7); experiment: AbDHODH steady-state rate assay; format: biochemical; settings: matched imidazopyrimidine vs triazolopyrimidine
T1 sequence (B7GZW7 1-334): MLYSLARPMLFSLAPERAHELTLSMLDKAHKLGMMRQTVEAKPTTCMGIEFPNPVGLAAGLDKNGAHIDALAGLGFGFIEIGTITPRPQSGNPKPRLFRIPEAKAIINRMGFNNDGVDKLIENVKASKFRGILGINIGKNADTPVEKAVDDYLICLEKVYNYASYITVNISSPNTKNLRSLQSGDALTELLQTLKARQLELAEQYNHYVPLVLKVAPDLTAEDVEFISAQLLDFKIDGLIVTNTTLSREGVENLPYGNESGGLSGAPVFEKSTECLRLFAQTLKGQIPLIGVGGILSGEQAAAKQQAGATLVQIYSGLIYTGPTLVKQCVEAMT

[1] = tested on: A. baumannii HUMC1 (CR-XDR); experiment: Antimicrobial susceptibility testing in MM; format: cell-based, Acinetobacter baumannii; settings: HUMC1 and LAC-4 vs AB307
A. baumannii AB307 = settings: 1 × 10^9 CFU AB307 plated on MM + 1 µg/mL
A. baumannii HUMC1 = settings: 1 × 10^9 CFU HUMC1 plated on MM + 1 µg/mL
A. baumannii AB307-0294 = experiment: Antimicrobial susceptibility testing in MM; format: cell-based, Acinetobacter baumannii

Question: With Cc1cc(Nc2ccc(S(F)(F)(F)(F)F)cc2)n2ccnc2n1 [DSM186] as the compound, how does the “fold more potent than DSM161 on AbDHODH” value (AbDHODH) read?
Answer: 10 fold

Question: What about the “fold difference in potency, drug-resistant strains vs drug-sensitive AB307” value [1] of the same compound?
Answer: 3 fold

Question: What about the “breakthrough growth (preexisting resistance)” value (A. baumannii AB307) of the same compound?
Answer: No breakthrough growth occurred

Question: What about the “breakthrough growth (preexisting resistance)” value (A. baumannii HUMC1) of the same compound?
Answer: No breakthrough growth occurred

Question: What about the “fold EC50 for antibacterial activity on AB307 higher than enzyme inhibition” value (A. baumannii AB307-0294) of the same compound?
Answer: ~ 2 fold
